Results from PubChem BioAssay AID1778 (Sanford-Burnham Center for Chemical Genomics, 2009).
The list shows a part of the results. Measured potencies and affinities stand elsewhere. Active and inactive are the calls of the source. No stated cut-off is given here; in the data, active means inhibition above about 50%; inactive means the rest.

The chains behind the UniProt entries cited, without tags or fusion partners. Where a name states a change or a piece, a line headed by the entry shows the natural chain unless it says otherwise.
UniProt P41145: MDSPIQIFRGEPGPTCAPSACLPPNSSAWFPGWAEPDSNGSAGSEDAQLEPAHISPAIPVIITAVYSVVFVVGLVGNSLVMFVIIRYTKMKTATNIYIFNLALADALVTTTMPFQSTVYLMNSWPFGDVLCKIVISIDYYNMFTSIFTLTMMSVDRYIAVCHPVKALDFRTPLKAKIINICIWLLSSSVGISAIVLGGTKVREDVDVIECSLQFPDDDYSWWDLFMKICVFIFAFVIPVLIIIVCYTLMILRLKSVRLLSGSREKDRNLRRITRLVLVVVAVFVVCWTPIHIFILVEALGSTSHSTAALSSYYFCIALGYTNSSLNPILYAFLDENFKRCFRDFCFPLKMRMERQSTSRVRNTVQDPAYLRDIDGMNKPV

These molecules were tested against Kappa-type opioid receptor (Homo sapiens) (UniProt P41145) (assay: kappa opioid receptor blockers – cell-based, luminescence, uHTS (AID 1778)). Settings: KOR beta-arrestin recruitment, antagonist mode, at 10 µM, hits give high values.
`CCOP1(=S)c2c(C)nn(CCC#N)c2N=C(c2ccc(F)cc2)N1C` (stereo unspecified) was tested, and the inhibition was inactive: 6.1%.
With `CN(C(=O)Cc1ccccc1)[C@@H]1CC[C@]2(CCCO2)C[C@H]1N1CCCC1` the inhibition was inactive: -1.9%.
In the case of `Cn1c(=O)c2c(nc(CN3CCN(c4ccccc4F)CC3)n2CCN2CCOCC2)n(C)c1=O`, the inhibition is reported as inactive: 15.3%.
`Fc1ccc2c(c1)nnn2C1CCN(Cc2c(Cl)cccc2Cl)CC1` was tested, and the inhibition was inactive: 31.3%.
With `CC(C)[C@H](NC(=O)N1CCn2c1nc1ccccc12)C(=O)NCc1ccco1` the inhibition was inactive: -30.1%.
In the case of `O=[N+]([O-])c1ccc2c(c1)nnn2O`, the inhibition is reported as inactive: 11.2%.
In the case of `Cc1ccc2c(c1)C1CN(C)CCC1N2C(=S)NC(=O)c1ccc(Br)cc1` (stereo unspecified), the inhibition is reported as inactive: 36.2%.
`CCc1cccc(C)c1NC(=O)Cn1c(NCCO)nc2ccccc21` was tested, and the inhibition was inactive: -8.3%.
In the case of `CN1CCN(C(=O)Cn2c(C(F)(F)F)nc3ccccc32)CC1`, the inhibition is reported as inactive: 15.1%.
For `c1ccc(Cn2c(CNc3nc4ccccc4n3CCN3CCCCC3)nc3ccccc32)cc1`, the inhibition was inactive: -6.1%.
For `O=C(OC1CN2CCC1CC2)c1ccc(Cl)cc1` (stereo unspecified), the inhibition was inactive: -20.6%.
`Cn1cccc1/C=N/NC(=O)Cn1cnc2ccccc21` was tested, and the inhibition was inactive: -13%.
`CCN(CC)CCn1cnc2c1c(=O)[nH]c(=O)n2Cc1ccccc1` was tested, and the inhibition was inactive: -2.1%.
With `Cc1ccc(S(=O)(=O)c2nnn3c2nc(NC2CCN(Cc4ccccc4)CC2)c2ccccc23)cc1C` the inhibition was inactive: -27.8%.
For `CN1CCC(N(C)c2nc(-c3ccccc3)nc3ccccc23)CC1`, the inhibition was inactive: -34.9%.
For `C[C@H](NC(=O)N1CCn2c1nc1ccccc12)C(=O)NCC1CCCO1` (stereo partly specified), the inhibition was inactive: 18.6%.
For `CC(C)C(NS(=O)(=O)c1cccc2nsnc12)C(=O)N1CCn2c1nc1ccccc12` (stereo unspecified), the inhibition was inactive: -36.2%.
For `OCCNc1nc2ccccc2n1CCN1CCCCC1`, the inhibition was inactive: 27.6%.
For `Cc1nc2ccccc2n1CC(=O)NCCN1CCOCC1`, the inhibition was inactive: 37.3%.
`O=[As](O)(O)c1cccnc1` was tested, and the inhibition was inactive: 8.4%.
In the case of `Cn1c(=O)c2c(ncn2CC(=O)N2CCCCCC2)n(C)c1=O`, the inhibition is reported as inactive: 14%.
In the case of `O=C(Cn1cnc2ccccc21)N/N=C/c1cccnc1`, the inhibition is reported as inactive: 8.8%.
For `CN(C)C(=O)Cn1c(=O)n(C)c2ccccc21`, the inhibition was inactive: -7.3%.
`CS(=O)(=O)c1ccc(Cl)c(NC(=O)COC(=O)C(O)(c2ccccc2)c2ccccc2)c1` was tested, and the inhibition was inactive: -21.2%.
In the case of `C(=N\c1nc2ccccc2n1CCN1CCOCC1)/c1cccs1`, the inhibition is reported as inactive: -28.7%.
In the case of `Cc1c(Cl)c(C(=O)Nc2nc3ccccc3n2CCN2CCCCC2)nn1C`, the inhibition is reported as inactive: 23.3%.
For `CCN(CC)CCn1cnc2c1c(=O)n(CCOC(=O)c1cc(OC)c(OC)c(OC)c1)c(=O)n2C`, the inhibition was inactive: 2.2%.
With `C=CCOC(=O)C1=C(C)N=C2SCCC(=O)N2C1/C=C/c1ccccc1` (stereo unspecified) the inhibition was inactive: -10.8%.
In the case of `Cn1c(=O)c2c(ncn2CCN(CCO)Cc2ccccc2)n(C)c1=O`, the inhibition is reported as inactive: 8.8%.
With `O=[As](O)(c1cccc(O)c1)c1cccc(O)c1` the inhibition was inactive: 8.7%.
For `COc1ccc(CNc2nc3ccccc3n2CCN2CCOCC2)cc1`, the inhibition was inactive: -22.8%.
`Cc1cccc(OCC(=O)OC2CN3CCC2CC3)c1` (stereo unspecified) was tested, and the inhibition was inactive: -13.1%.
In the case of `CCOC(=O)C1=C(C)N=C2SCCC(=O)N2[C@@H]1/C=C/c1ccccc1`, the inhibition is reported as inactive: -0.5%.
With `O=C(Cn1c(-c2cncs2)nc2ccccc21)NC1CCCC1` the inhibition was inactive: 6.9%.
In the case of `N#CCC(=O)N1CCn2c1nc1ccccc12`, the inhibition is reported as inactive: 7.1%.
`O=C(Cn1c(CO)nc2ccccc21)NC1CCCCCC1` was tested, and the inhibition was inactive: 13.4%.
With `CCN(CC)CCn1c(NCc2cc(OC)ccc2OC)nc2ccccc21` the inhibition was inactive: 17.8%.
In the case of `CCOC(=O)CSc1nc2ccccc2n1CC(=O)NC(C)(C)C`, the inhibition is reported as inactive: 17.2%.
For `CC(C(=O)Nc1ccccc1C(=O)O)n1c(C(F)(F)F)nc2ccccc21` (stereo unspecified), the inhibition was inactive: -6.7%.
With `Cn1c(=O)c2ncn(CC(=O)NCCOc3ccccc3)c2n(C)c1=O` the inhibition was inactive: -28.6%.
With `CCc1ccc(NC(=O)Cn2c3[n+](c4c(F)c(F)ccc42)CCCCC3)cc1` the inhibition was inactive: -22.5%.
`CC(C)c1ccccc1NC(=O)Cn1c(/C=C/c2ccccc2)nc2ccccc21` was tested, and the inhibition was inactive: 8.8%.
`CC(C)(C)NC(=O)Cn1c(-c2nonc2N)nc2ccccc21` was tested, and the inhibition was inactive: -40.6%.
For `COC(=O)Cn1c(=N)n(CCN2CCCCC2)c2ccccc21`, the inhibition was inactive: 9.3%.
`NNC(=O)Cn1cnc2ccccc21` was tested, and the inhibition was inactive: 3.1%.
`Cc1ccc2c(c1)C1CN(C)CCC1N2C(=O)c1ccccc1NS(=O)(=O)c1cccc(C(F)(F)F)c1` (stereo unspecified) was tested, and the inhibition was inactive: -10.2%.
With `Nc1cccc2c([As](=O)(O)O)cccc12` the inhibition was inactive: 13.2%.
For `O=C(Cn1c(CO)nc2ccccc21)NCCc1ccccc1`, the inhibition was inactive: 11.1%.
With `Cc1ccc(NCCc2c([N+](=O)[O-])cc([N+](=O)[O-])cc2[N+](=O)[O-])cc1` the inhibition was inactive: 5.6%.
For `CCCCC(=O)Nc1ccc2c(c1)nc1n2CCN(CCOC)C1`, the inhibition was inactive: 11.1%.
`Cn1c(=O)c2c(ncn2CC(=O)Nc2cc(Cl)c(Cl)cc2Cl)n(C)c1=O` was tested, and the inhibition was inactive: 12.1%.
`O=C(Cn1c(C(F)(F)F)nc2ccccc21)Nc1ccccc1N1CCOCC1` was tested, and the inhibition was inactive: -12.9%.
In the case of `CCCOP(=S)(Nc1nc(N)cc(=O)[nH]1)OCCC`, the inhibition is reported as inactive: -6.1%.
`O=C(CSc1nc2ccccc2n1CC(=O)N1CCOCC1)N1CCCC1` was tested, and the inhibition was inactive: 16%.
For `CCN(CC)CCCNC(=S)N1CCn2c(nc3ccccc32)C1`, the inhibition was inactive: -9.2%.
In the case of `Cn1c(=O)n(CCc2ccccc2)c(=O)c2c1nc1n2CCN1Cc1ccco1`, the inhibition is reported as inactive: 13.7%.
With `C[C@H](NC(=O)N1CCn2c1nc1ccccc12)C(=O)NCc1ccc(F)cc1` the inhibition was inactive: -15.6%.
For `CSCC[C@H](NC(=O)N1CCn2c1nc1ccccc12)C(=O)N1CCCCC1`, the inhibition was inactive: -66.7%.
`O=C(Cn1c(-c2ccccn2)nc2ccccc21)N/N=C/c1ccccn1` was tested, and the inhibition was inactive: -9.6%.
With `O=C(CCCCCNC(=O)N1CCn2c1nc1ccccc12)NCc1ccccc1Cl` the inhibition was inactive: -15.1%.
With `O=C(Cn1c(NCCO)nc2ccccc21)NCC1CCCO1` (stereo unspecified) the inhibition was inactive: 5.3%.
